Measurements published in ChEMBL document CHEMBL4831512 (J Med Chem, 2021).
pIC50: −log10 of the molar value.

Sequences of proteins named here, by UniProt entry; tags and fusion partners are left off.
UniProt P42336, whole entry: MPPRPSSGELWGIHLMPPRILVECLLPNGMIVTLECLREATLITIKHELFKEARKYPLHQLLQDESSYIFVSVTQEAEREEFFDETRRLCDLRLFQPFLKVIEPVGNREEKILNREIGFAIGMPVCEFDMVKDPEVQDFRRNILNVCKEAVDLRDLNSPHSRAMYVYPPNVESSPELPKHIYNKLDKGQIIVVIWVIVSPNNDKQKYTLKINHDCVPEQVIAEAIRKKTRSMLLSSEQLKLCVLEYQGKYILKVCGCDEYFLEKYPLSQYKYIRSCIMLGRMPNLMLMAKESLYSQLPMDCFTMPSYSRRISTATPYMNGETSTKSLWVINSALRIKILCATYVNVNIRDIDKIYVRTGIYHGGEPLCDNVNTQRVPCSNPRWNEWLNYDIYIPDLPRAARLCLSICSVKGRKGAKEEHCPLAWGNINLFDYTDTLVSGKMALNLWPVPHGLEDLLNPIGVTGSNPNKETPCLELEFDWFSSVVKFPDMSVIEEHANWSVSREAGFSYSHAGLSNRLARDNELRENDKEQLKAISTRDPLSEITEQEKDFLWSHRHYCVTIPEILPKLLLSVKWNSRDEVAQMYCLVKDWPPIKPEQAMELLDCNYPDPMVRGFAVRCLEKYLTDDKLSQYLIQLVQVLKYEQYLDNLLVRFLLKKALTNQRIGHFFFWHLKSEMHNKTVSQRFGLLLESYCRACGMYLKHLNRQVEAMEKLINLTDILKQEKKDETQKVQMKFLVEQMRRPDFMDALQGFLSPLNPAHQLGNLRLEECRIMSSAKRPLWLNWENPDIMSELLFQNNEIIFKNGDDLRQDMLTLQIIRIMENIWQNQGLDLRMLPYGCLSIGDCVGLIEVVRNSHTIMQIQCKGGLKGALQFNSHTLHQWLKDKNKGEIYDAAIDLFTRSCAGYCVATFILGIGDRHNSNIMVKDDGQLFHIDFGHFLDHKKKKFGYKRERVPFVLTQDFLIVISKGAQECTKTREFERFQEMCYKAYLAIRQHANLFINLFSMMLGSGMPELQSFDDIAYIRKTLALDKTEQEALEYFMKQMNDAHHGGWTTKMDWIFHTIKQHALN

Molecular target: Phosphatidylinositol 4,5-bisphosphate 3-kinase catalytic subunit alpha isoform (Homo sapiens, UniProt P42336)
Format: cell-based, Fibroblast

Cc1ncc(-c2cc(-c3cc(S(=O)(=O)NCC(C)(C)O)ccc3C)cnc2N)o1
pIC50: 5.20
